The chains behind the UniProt entries cited, without tags or fusion partners. Where a name states a change or a piece, a line headed by the entry shows the natural chain unless it says otherwise.
UniProt O75116: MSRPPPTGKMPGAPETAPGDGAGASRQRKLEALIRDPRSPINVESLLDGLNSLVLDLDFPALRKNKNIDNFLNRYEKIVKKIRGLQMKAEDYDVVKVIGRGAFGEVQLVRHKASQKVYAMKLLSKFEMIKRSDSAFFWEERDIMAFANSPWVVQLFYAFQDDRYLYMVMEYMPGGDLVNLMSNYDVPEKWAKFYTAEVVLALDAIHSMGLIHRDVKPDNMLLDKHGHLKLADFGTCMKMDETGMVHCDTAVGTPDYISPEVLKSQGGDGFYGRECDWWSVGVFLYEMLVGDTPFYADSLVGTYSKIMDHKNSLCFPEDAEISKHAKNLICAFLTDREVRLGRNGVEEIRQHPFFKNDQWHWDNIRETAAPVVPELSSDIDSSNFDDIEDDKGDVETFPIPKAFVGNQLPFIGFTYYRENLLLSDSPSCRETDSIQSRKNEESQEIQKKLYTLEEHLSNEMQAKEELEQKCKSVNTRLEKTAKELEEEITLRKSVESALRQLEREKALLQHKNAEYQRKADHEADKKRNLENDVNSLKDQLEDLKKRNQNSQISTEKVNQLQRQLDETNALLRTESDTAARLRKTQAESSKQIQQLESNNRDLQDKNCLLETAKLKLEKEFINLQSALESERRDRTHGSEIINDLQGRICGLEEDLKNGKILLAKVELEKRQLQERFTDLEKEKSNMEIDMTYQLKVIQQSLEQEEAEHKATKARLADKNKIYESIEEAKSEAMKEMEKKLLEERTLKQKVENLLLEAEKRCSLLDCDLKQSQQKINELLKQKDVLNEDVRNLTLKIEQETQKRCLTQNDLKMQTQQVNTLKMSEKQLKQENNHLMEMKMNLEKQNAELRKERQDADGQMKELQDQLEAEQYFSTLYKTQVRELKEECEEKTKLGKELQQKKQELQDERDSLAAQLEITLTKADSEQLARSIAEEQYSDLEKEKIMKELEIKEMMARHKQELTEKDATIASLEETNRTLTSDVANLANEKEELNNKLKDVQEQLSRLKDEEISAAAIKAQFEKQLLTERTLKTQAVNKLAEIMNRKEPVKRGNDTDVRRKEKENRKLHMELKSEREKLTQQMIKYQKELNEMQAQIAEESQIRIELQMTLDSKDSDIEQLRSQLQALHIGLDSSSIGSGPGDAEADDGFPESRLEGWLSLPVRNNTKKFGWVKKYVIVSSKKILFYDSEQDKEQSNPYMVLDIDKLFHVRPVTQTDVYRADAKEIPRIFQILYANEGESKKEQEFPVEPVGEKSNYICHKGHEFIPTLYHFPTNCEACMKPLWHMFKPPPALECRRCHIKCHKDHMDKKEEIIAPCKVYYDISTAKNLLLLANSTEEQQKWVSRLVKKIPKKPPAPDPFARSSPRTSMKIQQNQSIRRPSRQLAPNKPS

In ChEMBL document CHEMBL1157712, “Hit to lead account of the discovery of bisbenzamide and related ureidobenzamide inhibitors of Rho kinase” (J Med Chem, 2010):

Experiments:
ROCK1 (Homo sapiens) = assay: Inhibition of ROCK1
in vitro = settings: human, Caco-2
[1] = target: Rho-associated protein kinase 2 (Homo sapiens, UniProt O75116)

Compound | IC50 (ROCK1 (Homo sapiens)) | efflux ratio (in vitro) | IC50 [1]
N#Cc1cccc(NC(=O)NCc2cccc(C(=O)NCCC3CCCNC3)c2)c1 (centres undefined) | 74 nM | – | –
N#Cc1ccc(NC(=O)NCc2cccc(C(=O)Nc3ccc4c(c3)CNCC4)c2)cc1 | 40 nM | – | –
COc1ccc(C(=O)NCc2cccc(C(=O)Nc3ccc4c(c3)CN(C)CC4)c2)cc1OC | 86 nM | 90.3 | –
COc1ccc(C(=O)NCc2cccc(C(=O)Nc3ccc(CN(C)C)cc3)c2)cc1OC | 205 nM | – | –
COc1ccc(C(=O)NCc2cccc(C(=O)NCCC3CCNCC3)c2)cc1OC | 180 nM | – | 176 nM

More lines, in order of falling IC50 (ROCK1 (Homo sapiens)), values ahead:

IC50 (ROCK1 (Homo sapiens)) | efflux ratio (in vitro) | IC50 [1] | Compound
97 nM | – | – | COc1ccc(C(=O)NCc2cccc(C(=O)NCCC3CCCNC3)c2)cc1OC (centres undefined)
91 nM | – | – | CN(C)Cc1ccc(NC(=O)c2cccc(CNC(=O)Nc3ccc(C#N)cc3)c2)cc1
